Data from patent publication US20230026840A1, “COMPOUND USED AS EGFR KINASE INHIBITOR AND USE THEREOF” (TYK MEDICINES, INC., priority 2019, published 2023).

Sequences of proteins named here, by UniProt entry; tags and fusion partners are left off. Residues count along the entry.
UniProt P00533, 25-1210 T790M/C797S/L858R limits assumed: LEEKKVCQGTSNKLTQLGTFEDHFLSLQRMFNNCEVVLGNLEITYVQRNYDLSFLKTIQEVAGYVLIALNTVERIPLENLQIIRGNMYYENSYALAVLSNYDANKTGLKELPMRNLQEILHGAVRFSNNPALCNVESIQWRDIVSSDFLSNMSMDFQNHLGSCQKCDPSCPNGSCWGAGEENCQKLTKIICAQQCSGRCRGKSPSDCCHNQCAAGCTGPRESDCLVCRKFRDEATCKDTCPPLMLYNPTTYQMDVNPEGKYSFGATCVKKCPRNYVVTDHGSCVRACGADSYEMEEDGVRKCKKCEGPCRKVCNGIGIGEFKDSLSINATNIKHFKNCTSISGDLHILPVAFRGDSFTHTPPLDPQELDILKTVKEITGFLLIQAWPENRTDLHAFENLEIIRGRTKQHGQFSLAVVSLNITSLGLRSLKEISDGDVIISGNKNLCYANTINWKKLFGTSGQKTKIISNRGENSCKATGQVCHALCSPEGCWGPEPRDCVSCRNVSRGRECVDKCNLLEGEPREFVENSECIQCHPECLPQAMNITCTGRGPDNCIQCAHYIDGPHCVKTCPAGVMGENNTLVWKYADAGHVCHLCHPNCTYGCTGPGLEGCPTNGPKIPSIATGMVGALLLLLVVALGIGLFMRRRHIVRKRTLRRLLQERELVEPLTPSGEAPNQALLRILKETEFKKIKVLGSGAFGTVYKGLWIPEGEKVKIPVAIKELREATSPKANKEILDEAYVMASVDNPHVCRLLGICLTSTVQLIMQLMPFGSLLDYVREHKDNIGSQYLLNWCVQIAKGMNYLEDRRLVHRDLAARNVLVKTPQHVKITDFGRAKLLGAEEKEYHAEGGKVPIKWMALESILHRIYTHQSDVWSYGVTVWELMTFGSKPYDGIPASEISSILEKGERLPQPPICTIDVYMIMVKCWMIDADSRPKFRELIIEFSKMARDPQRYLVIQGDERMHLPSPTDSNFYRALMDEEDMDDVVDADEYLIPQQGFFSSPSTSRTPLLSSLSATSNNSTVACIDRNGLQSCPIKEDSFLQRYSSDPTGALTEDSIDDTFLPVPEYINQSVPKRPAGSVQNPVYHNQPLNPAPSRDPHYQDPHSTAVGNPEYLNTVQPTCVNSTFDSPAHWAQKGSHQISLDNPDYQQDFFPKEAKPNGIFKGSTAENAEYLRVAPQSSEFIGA

Target: EGFR (L858R/T790M/C797S) kinase (Homo sapiens, UniProt P00533, C797S/L858R/T790M)

COc1cc(N2CC3CC(C2)N3C(C)=O)ccc1Nc1ncc(Cl)c(Nc2ccccc2P(C)(C)=O)n1
IC50: 243 nM
